# Results: patent publication US11584714B2
# Biological target: Thrombin (Homo sapiens (Human), UniProt P00734)
# Assay: Thrombin inhibition
# Format: biochemical
smiles,measurement,value
n1nc2c([nH]1)c1nn[nH]c1c1nn[nH]c21,Thrombin Ki (μM),No Activity

# Some compounds may have been tested in ways that are not shown here.
